These are literature values, as cited in patent publication US20230310455A1, “COMBINATION THERAPIES FOR TREATMENT OF HER2 CANCER” (Genentech, Inc., priority 2020, published 2023).

Sequences of proteins named here, by UniProt entry; tags and fusion partners are left off.
UniProt P03372, whole entry: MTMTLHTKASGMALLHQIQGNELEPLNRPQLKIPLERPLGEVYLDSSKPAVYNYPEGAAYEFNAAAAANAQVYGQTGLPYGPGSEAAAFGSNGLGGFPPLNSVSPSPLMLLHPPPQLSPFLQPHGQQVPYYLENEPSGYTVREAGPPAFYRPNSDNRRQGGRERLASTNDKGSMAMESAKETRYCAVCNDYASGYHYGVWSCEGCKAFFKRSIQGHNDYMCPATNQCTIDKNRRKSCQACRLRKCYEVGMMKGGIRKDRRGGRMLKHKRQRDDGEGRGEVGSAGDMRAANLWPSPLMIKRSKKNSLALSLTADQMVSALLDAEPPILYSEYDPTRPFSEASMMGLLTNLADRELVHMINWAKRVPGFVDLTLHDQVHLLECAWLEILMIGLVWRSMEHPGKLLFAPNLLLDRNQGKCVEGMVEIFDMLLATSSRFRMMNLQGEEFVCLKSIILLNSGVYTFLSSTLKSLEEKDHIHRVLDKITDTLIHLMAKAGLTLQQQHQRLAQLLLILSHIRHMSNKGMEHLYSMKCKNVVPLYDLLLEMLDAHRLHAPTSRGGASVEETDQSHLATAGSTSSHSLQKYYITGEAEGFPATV

For the series, the target named is ER (Homo sapiens, UniProt P03372). To be noted: greater than tamoxifen; cited from earlier work.

Take `C[C@]12CC[C@@H]3c4ccc(O)cc4C[C@@H](CCCCCCCCC[S+]([O-])CCCC(F)(F)C(F)(F)F)[C@H]3[C@@H]1CC[C@@H]2O` (stereo partly drawn) [fulvestrant, (7α,17β)-7-{9-[(4,4,5,5,5-pentafluoropentyl)sulfinyl]nonyl}estra-1,3,5(10)-triene-3,17-diol]: the “affinity for the ER relative to that of tamoxifen” value was “approximately 100 fold”.
